As usually defined, the IC50 is the midpoint of a concentration-inhibition curve. Read a low IC50 as inhibition by little substance.

For assay [1], the target named is Syn-O3. Description: inhibition ELISA: soluble fibrils titrated, preincubated with 10 ng/ml Syn-O3, then plate coated with α-synuclein fibrils.
In assay [2] the target is Syn-O2. Description: inhibition ELISA: soluble fibrils titrated, preincubated with 10 ng/ml Syn-O2, then plate coated with α-synuclein fibrils.
In assay [3] the target is Syn-O4. Description: inhibition ELISA: soluble fibrils titrated, preincubated with 10 ng/ml Syn-O4, then plate coated with α-synuclein fibrils.
Assay [4] addresses Syn-O1. Description: inhibition ELISA: soluble fibrils titrated, preincubated with 10 ng/ml Syn-O1, then plate coated with α-synuclein fibrils. In general terms: An ELISA detects its analyte on a solid surface through an enzyme-linked reagent.
In assay [5] the target is Syn-O1. The assay can be described thus: inhibition ELISA: monomers titrated, preincubated with 10 ng/ml Syn-O1, then plate coated with α-synuclein fibrils.
Assay [6] addresses Syn-O4. The assay can be described thus: inhibition ELISA: monomers titrated, preincubated with 10 ng/ml Syn-O4, then plate coated with α-synuclein fibrils.
Another assay has as its target Syn-F1. The assay can be described thus: inhibition ELISA: monomers titrated, preincubated with 10 ng/ml Syn-F1, then plate coated with α-synuclein fibrils.
Assay [7] concerns the target Syn-O2. The assay can be described thus: inhibition ELISA: monomers titrated, preincubated with 10 ng/ml Syn-O2, then plate coated with α-synuclein fibrils.
Another assay deals with Syn-F2. The assay can be described thus: inhibition ELISA: monomers titrated, preincubated with 10 ng/ml Syn-F2, then plate coated with α-synuclein fibrils.
Assay [8] addresses Syn-O3. Description: inhibition ELISA: monomers titrated, preincubated with 10 ng/ml Syn-O3, then plate coated with α-synuclein fibrils.

Regarding “α-synuclein fibrils (from UniProt P37840 1-140)”, the IC50 came out at 0.47 nM in the assay with Syn-O3 [1], 0.12 nM with Syn-O2 [2], 0.52 nM with Syn-O4 [3] and 0.37 nM with Syn-O1 [4].
For “α-synuclein monomers (from UniProt P37840 1-140)”, the IC50 with Syn-O1 [5] came out at 4790 nM; with Syn-O4 [6], 3600 nM; with Syn-F1 it was 2080 nM; in the assay with Syn-O2 [7], 3280 nM; in the assay with Syn-F2 it was 3710 nM; in the assay with Syn-O3 [8], 5330 nM.

These data come from patent publication US20140241987A1.
